Data on 1 compound can be found in patent publication EP2945947B1, “INHIBITING THE TRANSIENT RECEPTOR POTENTIAL A1 ION CHANNEL” (Merck Sharp & Dohme Corp., priority 2013, dated 2014).

The data set relates to Female Sprague Dawley rats. Description: Rodent acute tolerability test with liver function tests (Example 5). As to the method:
Compounds of Formula (Ia) were assessed for acute tolerability in a rodent model at dose levels ranging from 100 - 200 mg/kg based upon the minimum efficacious dose of each compound. Female Sprague Dawley rats were administered up to a 10 mL/kg dose volume of each compound in 0.9% saline at appropriate concentrations as an intravenous bolus via the lateral tail vein. The animals were observed immediately post dose and for up to twenty four hours post dose and clinical observations were recorded. Additionally, approximately twenty four hours post dose animals were euthanized and blood taken for serum chemistry analysis with a focus on liver function tests (LFTs). The maximum tolerated single dose and LFT results are summarized in Table 3, where (↔) indicates blood levels of markers for potential liver damage within normal range and (↑) indicates blood levels of markers for potential liver damage elevated above normal range. Referring to the data in Table 3, LFT blood levels of markers for potential liver damage remained within normal range for the compounds of Formula (Ia), while LFTs were elevated for Comparator Compounds including 5-10 fold elevation above normal for ALT and AST blood levels observed upon administration of Comparative Compound 1. […]

[1] abbreviates: single IV bolus dose 50 mg/kg, about 24 hours post dose.

As to `C[C@H]1CCCN1c1ccc(-c2csc(NC(=O)Cn3cnc4c3c(=O)n(C)c(=O)n4C)n2)cc1F`, the “elevation above normal for ALT and AST blood levels” value (after administration, about 24 hours) is on record as 5-10 fold. The “serum biomarkers of hepatotoxicity” value (animal studies of Example 5) is recorded as “elevate the serum biomarkers of hepatotoxicity”. Moreover, where the note is “intravenous bolus dose”, the “blood levels of ALT and AST, of the high end of the normal ranges” value was 170-1,311%. Under setting [1], the “Alterations in LFT” value is reported as “↑”, the “LFT: % upper normal range ALT serum levels” value is recorded as 1000% and the “LFT: % upper normal range AST serum levels” value is given as 514%.
